Experimental data as given in the Kinase Knowledgebase extract (Sharma et al. 2016).

Sequences of proteins named here, by UniProt entry; tags and fusion partners are left off. A change or cut given only in a name is not applied to a line headed by its entry.
UniProt P48736: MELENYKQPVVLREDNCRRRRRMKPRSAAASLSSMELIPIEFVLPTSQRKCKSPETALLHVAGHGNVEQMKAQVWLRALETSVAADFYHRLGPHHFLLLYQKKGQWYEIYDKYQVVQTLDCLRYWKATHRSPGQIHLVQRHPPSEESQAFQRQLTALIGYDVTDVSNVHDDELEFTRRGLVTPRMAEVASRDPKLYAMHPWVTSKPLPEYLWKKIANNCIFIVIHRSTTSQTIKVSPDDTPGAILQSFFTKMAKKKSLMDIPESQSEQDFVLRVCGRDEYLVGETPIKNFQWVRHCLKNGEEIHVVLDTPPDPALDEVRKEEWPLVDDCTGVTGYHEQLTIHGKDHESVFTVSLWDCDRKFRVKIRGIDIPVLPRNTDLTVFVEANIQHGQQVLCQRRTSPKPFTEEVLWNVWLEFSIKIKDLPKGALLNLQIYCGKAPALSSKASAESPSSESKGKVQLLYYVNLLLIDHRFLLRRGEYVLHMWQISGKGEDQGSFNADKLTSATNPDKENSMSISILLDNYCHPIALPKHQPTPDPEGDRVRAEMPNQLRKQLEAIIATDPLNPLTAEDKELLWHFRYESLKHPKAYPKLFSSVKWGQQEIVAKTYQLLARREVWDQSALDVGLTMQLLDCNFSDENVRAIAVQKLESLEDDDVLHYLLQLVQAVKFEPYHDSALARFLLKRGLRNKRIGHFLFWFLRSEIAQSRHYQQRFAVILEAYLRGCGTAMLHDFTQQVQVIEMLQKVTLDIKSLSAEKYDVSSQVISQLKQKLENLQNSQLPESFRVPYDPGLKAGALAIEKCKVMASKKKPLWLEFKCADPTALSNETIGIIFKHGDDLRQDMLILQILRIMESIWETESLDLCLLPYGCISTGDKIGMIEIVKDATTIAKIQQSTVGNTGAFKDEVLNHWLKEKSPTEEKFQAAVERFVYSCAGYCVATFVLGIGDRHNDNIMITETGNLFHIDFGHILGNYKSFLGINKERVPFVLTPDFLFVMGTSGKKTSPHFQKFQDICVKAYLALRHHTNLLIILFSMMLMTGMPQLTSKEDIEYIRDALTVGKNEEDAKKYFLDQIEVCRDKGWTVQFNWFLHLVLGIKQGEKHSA
UniProt P42338: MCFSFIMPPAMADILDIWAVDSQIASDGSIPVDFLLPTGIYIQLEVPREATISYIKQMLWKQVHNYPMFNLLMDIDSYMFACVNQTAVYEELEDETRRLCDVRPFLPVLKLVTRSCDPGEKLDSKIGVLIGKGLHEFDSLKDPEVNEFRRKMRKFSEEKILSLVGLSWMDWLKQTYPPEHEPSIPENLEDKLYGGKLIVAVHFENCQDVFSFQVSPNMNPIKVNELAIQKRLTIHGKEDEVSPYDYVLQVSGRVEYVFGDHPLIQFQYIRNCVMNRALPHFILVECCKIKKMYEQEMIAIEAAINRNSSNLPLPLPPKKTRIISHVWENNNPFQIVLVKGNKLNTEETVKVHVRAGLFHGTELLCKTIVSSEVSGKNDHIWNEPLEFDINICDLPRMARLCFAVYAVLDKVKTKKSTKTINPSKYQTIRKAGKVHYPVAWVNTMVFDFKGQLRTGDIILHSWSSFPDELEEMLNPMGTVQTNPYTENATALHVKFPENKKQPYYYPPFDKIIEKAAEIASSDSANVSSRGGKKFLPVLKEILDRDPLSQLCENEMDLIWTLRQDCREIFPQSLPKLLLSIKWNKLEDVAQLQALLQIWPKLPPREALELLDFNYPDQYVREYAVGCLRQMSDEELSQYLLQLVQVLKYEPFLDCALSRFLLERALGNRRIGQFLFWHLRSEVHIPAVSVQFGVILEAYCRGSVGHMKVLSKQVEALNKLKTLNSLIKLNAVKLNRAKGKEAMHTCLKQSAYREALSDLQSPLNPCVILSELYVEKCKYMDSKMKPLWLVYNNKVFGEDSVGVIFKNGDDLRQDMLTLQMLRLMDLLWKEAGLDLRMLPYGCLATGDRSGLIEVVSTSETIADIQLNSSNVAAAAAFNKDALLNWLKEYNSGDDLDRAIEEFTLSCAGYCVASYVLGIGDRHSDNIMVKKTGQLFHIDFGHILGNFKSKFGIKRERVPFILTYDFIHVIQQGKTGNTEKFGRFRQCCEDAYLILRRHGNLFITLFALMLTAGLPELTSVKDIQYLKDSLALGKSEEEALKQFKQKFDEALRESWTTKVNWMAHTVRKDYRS

How the values were obtained:
[1] = target: PIK3CG (human) (UniProt P48736); assay: Enzyme Assay
[2] = target: PIK3CB (Human) (UniProt P42338); assay: Inhibition of PIK3CB Kinase Activity

| IC50 [2] [nM] | Compound | IC50 [1] [nM] |
| --- | --- | --- |
|  | Nc1ncnc2c1c(-c1cc3cc(O)ccc3[nH]1)nn2C1CCCC1 | 100 to 500 |
| 100 to 500 | CNC(=O)Nc1nc2ccc(-c3nn(C(C)C)c4ncnc(N)c34)cc2s1 |  |
